Measured values published in ChEMBL document CHEMBL1130557, “Synthesis and biological evaluation of 14-alkoxymorphinans. 14.1 14-ethoxy-5-methyl substituted indolomorphinans with opioid receptor selectivity” (Bioorg Med Chem Lett, 1997).

The chains behind the UniProt entries cited, without tags or fusion partners.
UniProt P33535, whole entry: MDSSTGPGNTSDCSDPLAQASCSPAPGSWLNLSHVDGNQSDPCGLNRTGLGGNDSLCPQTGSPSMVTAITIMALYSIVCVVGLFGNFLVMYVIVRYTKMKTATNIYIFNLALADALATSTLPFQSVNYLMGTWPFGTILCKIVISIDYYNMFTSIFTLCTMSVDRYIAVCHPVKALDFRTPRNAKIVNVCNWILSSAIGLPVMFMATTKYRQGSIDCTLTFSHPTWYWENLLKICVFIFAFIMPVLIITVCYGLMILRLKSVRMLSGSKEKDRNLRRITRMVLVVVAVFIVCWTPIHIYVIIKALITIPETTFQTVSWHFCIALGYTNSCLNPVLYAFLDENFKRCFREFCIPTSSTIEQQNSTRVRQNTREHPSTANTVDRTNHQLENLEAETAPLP

Target: Mu-type opioid receptor (Rattus norvegicus, UniProt P33535)
Test: Compound was evaluated for the binding affinity towards mu opioid receptor in rat brain homogenates using [3H]DAMGO as radioligand
Format: tissue-based

In the case of `Oc1ccc2c3c1O[C@H]1c4[nH]c5ccccc5c4C[C@@]4(O)[C@@H](C2)N(CC2CC2)CC[C@]314` [NALTRINDOLE], the Ki is reported as 30.4 nM.
